US4153709A, “N-Heterocyclic ureas as immune regulants” (Eli Lilly and Company, priority 1977, dated 1979)

How the values were obtained:
[1] = system: Salmonella typhimurium G46 missense histidine-auxotroph; assay: Host mediated assay (in vivo mutagenicity), G46 indicator (Table 22); set-up: species or system Salmonella typhimurium in Cox white Swiss male mice; settings: for IN VIVO mutants test/mutants control: s.c.
Method: Cox white Swiss male mice 25-30 grams were used in all in vivo tests.
A. Drug Administration: Appropriate solvents were used where applicable with a solvent control run within each test. The compounds to be tested were given either subcutaneously along the backbone of the mouse (0.1 ml.) or by oral gavage (0.5 ml.) B. Inoculation Technique: The histidine- cultures G46, C209, C3076, and D3056 used as the TA15 series have lost pathogenicity to mice because of absence or decrease in the lipopolysaccharide coat. The organisms were grown to stationary phase, then diluted with normal saline to give an inoculum near 1×10^8 organisms per milliliter. The abdominal area of the drug-treated mouse was swabbed with alcohol and two milliliters of bacterial culture were injected into the abdominal cavity of the mouse. The mice were returned to their cages for 3-4 hours.
C. Autopsy and Recovery: The mice were sacrificed individually by cervical dislocation prior to each autopsy. The abdominal areas were soaked with ethanol. The peritoneum was bared and 2.5 ml. of sterile normal saline was injected into the peritoneal cavity using a sterile (3-ml. plastic syringe with a 20-gauge needle. After insertion, the needle is turned bevel up and the saline was expelled into the cavity; while the needle remains through the peritoneum, keeping the point of the needle in sight pressed against the peritoneal wall, the abdomen of the mouse was massaged to mix contents. The saline wash was removed from the abdominal cavity back into the syringe. The needle was removed and the contents expelled into an appropriately marked tube and iced 4° C.
D. Dilution and Plating: One-ml. samples were plated at 10° dilution on all mice to determine revertants (histidine+).
A one-milliliter sample from the untreated dilutions from control animals is plated 10^-6, 10^-7, and 10^-8 dilutions with excess histidine to determine mutable population (histidine-).
The results are recorded as mutants test/mutants control.

[2] = system: Salmonella typhimurium G46 missense histidine-auxotroph; assay: Qualitative in vitro prescreen for mutagenicity, G46 indicator (Table 22); settings: 200 mcg disc
[3] = 300 mg/kg, MT/MC of 3 would indicate mutagenic potential

Structure (SMILES)	IN VIVO mutants test/mutants control ([1]; 3 mg/kg)	IN VIVO mutants test/mutants control ([1]; 30 mg/kg)	IN VIVO mutants test/mutants control [1, 3]	IN VITRO QUALITATIVE ACTIVITY [2]	toxicity to the animals ([1]; high levels)
Cn1cnc([N+](=O)[O-])c1Sc1ncnc2nc[nH]c12 [Azathioprine]	1.03	1.96	5.93	N	–
O=P1(N(CCCl)CCCl)NCCCO1 (stereo not drawn) [Cyclophosphamide]	1.16	1.30	TOXIC	N	toxic to the animals at high levels
